# This is a selection; strong and weak results do not stand in their true shares. Active and inactive are the calls of the source. No stated cut-off is given here; in the data, active means activation above about 20%; inactive means the rest.
# Assay: fluorescence polarization artefacts, biochemical, artefact control for PKA-R2B activator project (AID 504796);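 further: Cy5 labelled IP20 peptide probe with compound but no PKA protein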
# Conditions: FP artifact counterscreen, at 11.4 µM, stronger effect = higher value
compound,measurement,value
COc1ccc(NP(C)(=O)Oc2ccccc2OC)cc1 (stereo unspecified),activation,inactive: 0.42%
